The results in this text go back to ChEMBL document CHEMBL6182923, “Optimization of 1-Methyl-3-(pyridin-3-yl)-1H-indol Derivatives as ROR1 Inhibitors with Improved Activity and Selectivity” (J Med Chem, 2025).

By UniProt entry, the sequences of proteins in these tests, tags left out. Where a name states a change or a piece, a line headed by the entry shows the natural chain unless it says otherwise.
Platelet-derived growth factor receptor alpha (Homo sapiens), P16234, UniProt P16234, whole entry V561D: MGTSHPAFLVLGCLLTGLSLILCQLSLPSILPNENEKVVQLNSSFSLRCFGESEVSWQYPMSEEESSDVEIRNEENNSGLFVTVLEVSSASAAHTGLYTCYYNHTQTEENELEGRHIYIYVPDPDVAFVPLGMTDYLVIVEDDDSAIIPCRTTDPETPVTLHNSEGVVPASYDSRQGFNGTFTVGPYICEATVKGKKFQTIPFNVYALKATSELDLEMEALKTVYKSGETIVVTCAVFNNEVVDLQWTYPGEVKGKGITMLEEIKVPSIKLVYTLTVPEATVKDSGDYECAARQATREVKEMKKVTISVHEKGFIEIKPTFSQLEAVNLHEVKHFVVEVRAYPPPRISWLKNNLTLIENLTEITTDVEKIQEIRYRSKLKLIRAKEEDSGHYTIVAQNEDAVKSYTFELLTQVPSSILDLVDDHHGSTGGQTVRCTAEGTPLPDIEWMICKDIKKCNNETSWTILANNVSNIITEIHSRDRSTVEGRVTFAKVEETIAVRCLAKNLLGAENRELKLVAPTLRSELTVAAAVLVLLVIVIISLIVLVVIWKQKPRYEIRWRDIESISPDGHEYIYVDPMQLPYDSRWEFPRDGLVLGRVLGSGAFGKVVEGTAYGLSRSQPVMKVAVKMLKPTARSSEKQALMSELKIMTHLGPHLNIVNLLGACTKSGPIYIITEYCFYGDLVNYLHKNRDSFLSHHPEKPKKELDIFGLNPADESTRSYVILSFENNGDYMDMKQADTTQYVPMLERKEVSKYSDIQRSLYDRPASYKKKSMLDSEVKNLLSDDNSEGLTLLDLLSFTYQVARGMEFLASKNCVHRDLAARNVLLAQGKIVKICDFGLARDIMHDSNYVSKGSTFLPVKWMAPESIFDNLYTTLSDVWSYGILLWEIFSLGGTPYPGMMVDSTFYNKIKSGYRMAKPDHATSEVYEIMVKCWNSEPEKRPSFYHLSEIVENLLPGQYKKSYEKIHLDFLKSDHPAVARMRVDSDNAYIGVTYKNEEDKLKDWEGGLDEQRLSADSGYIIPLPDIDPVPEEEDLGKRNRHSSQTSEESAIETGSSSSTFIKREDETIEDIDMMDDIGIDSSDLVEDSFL
UniProt P09619, whole entry: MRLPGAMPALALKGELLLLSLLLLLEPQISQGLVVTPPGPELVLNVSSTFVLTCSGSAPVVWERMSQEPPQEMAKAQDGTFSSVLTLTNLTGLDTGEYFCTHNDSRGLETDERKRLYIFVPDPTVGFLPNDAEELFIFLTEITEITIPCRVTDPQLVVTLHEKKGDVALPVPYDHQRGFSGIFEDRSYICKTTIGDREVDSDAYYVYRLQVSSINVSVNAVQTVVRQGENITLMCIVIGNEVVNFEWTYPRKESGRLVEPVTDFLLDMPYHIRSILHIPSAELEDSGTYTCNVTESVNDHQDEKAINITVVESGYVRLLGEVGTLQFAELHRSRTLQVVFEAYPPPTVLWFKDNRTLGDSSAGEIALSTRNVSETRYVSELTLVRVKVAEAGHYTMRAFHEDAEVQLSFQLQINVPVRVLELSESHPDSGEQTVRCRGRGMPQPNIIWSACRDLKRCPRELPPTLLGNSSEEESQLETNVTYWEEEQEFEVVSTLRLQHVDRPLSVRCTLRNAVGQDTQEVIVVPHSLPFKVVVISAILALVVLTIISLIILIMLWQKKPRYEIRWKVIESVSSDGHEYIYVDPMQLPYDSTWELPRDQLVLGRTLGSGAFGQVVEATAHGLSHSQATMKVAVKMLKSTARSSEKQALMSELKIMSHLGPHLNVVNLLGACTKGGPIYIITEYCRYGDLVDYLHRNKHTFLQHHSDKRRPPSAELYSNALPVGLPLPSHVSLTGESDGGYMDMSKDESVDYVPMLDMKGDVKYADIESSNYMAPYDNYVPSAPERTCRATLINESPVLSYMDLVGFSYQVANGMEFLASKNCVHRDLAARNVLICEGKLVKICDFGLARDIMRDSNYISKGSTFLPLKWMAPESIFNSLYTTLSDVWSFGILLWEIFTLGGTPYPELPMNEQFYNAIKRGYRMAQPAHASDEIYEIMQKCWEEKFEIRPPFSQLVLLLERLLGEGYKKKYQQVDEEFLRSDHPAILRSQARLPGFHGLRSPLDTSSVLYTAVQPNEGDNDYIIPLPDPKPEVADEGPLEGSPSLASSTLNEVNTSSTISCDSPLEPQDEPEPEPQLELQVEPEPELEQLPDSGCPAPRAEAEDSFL
UniProt P48729: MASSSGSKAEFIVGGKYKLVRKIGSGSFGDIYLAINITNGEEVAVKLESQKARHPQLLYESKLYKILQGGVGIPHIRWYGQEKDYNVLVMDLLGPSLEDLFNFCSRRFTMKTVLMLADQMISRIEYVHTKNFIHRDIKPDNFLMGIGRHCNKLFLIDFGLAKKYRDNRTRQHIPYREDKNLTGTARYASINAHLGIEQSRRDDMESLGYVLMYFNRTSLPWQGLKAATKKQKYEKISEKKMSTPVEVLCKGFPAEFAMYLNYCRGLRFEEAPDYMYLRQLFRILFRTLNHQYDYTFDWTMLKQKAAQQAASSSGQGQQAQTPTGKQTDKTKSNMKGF

The term inhibition denotes the relative decrease from the control value, in per cent.

Test [1] has as its system Platelet-derived growth factor receptor alpha (Homo sapiens), P16234 [V561D]. Briefly: Inhibition of human PDGFR alpha V561D at 1 uM measured after 40 mins in presence of (gamma-33P)-ATP by scintillation counting analysis relative to control.
Test [2] concerns the target Platelet-derived growth factor receptor beta (Homo sapiens) (UniProt P09619). Briefly: Inhibition of human PDGFRbeta at 1 uM measured after 40 mins in presence of (gamma-33P)-ATP by scintillation counting analysis relative to control.
The target of test [3] is Actin-related protein 2 (Homo sapiens) (UniProt P61160). Briefly: Inhibition of human ACTR2 at 1 uM measured after 40 mins in presence of (gamma-33P)-ATP by scintillation counting analysis relative to control.
The target of test [4] is Casein kinase I isoform alpha (Homo sapiens) (UniProt P48729). Briefly: Inhibition of human CK1alpha at 1 uM measured after 40 mins in presence of (gamma-33P)-ATP by scintillation counting analysis relative to control.
The target in test [5] is T1, Megakaryocyte-associated tyrosine-protein kinase (Homo sapiens) (UniProt P42679).
T1 sequence (whole entry): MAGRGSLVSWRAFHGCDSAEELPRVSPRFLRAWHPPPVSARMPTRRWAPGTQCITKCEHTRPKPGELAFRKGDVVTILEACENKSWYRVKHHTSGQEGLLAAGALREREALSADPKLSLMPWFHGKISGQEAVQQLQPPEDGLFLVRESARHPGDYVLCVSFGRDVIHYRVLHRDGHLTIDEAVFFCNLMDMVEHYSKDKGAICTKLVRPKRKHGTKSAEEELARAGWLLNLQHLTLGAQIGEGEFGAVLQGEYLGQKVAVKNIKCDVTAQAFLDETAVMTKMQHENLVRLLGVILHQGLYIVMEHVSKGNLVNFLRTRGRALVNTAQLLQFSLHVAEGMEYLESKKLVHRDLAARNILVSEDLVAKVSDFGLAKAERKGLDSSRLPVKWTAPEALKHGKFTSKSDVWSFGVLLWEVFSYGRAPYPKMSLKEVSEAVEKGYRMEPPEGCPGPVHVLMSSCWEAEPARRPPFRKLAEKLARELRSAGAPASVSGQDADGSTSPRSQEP
Briefly: Inhibition of human MATK at 1 uM measured after 40 mins in presence of (gamma-33P)-ATP by scintillation counting analysis relative to control.

For the compound `COCOc1ccc(-c2cn(C)c3cc(NC(=O)c4ccc(C)c(C#Cc5ccnc6[nH]ncc56)c4)ccc23)cc1`, the inhibition in test [1] worked out at 92%.

As for `COc1ccc(-c2cn(C)c3cc(NC(=O)c4ccc(C)c(Nc5nccc(-c6ccc(OC7CC7)cc6)n5)c4)ccc23)cn1`, the inhibition in test [2] came to 20%; in test [1] it was 11%; in test [3], 20%; in test [4], 20%; in test [5] it was 20%.
